UUG fidelity: alters start codon recognition fidelity in yeast. S. cerevisiae UUG-firefly luciferase reporter, luminescence/redox ratio. activity score, % at 18.7 µM. 0.13% of 350,000 active. AID 602363;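 active = replicate mean at a twofold rise or more, about +100% in these data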;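 also: firefly luciferase made from a UUG start codon reports start codon fidelity; reporter light over untreated wells divided by growth signal over untreated wells; some hits fall short of that in this replicate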
Tn7 DDE FP: inhibitors of Tn7 peptide binding to fibrin DD(E), primary screen, biochemical, fluorescence polarization, human fibrin, Tn7 probe; FP displacement of FITC-Tn7 peptide from fibrin DD(E); 0% = median of compound wells per plate; inhibition, % at 8.3 µM; 370,000 tested, 0.13% active; AID 720508, 2013;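 active = inhibition above the mean of compounds falling within the control limits plus 3 SD of them, cut at about 14% in these data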;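 also: 0% = plate median of compound wells and 100% = 10 µM Aha-Tn7 peptide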
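System: human fibrin DD(E); quantity: Fibrin-DD(E) at 2 µM final; also added: fluorescent Tn7 probe at 0.1 µM; compound dosing: single nominal test concentration of 8.3 µM per compound; schedule: 10 min preincubation, 3 h with tracer, room temperature; detection: fluorescence polarization of the labelled Tn7 tracer; repeats: one replicate per compound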
DDE Tn6 FP inh: inhibitors of Tn6 peptide binding to fibrin DD(E), primary screen, biochemical, fluorescence polarization, human fibrin, Tn6 probe; Fibrinogen beta chain (Homo sapiens), P02675; 370,000 tested, 0.21% active; Fibrin DD(E) TRITC-Tn6 fluorescence polarization displacement; inhibition, % at 8.3 µM;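 active = inhibition above a per-campaign cutoff: mean of compounds within control limits plus 3 SD, cut at about 15% in these data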;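 also: 0% = median of all compound wells on the plate and 100% = blocking peptide control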
PglD inh: C. jejuni PglD acetyltransferase inhibitors, primary screen, biochemical, DTNB colorimetric, single point. purified PglD enzyme, DTNB colorimetric CoA detection. AID 602405, 2012. 360,000 tested, 0.098% active. UDP-N-acetylbacillosamine N-acetyltransferase PglD (Campylobacter jejuni). inhibition, % at 12.5 µM; in the data active = inhibition above about 16%, passing the limit was not always enough
Numbers without * were called inactive; . = no result given; + = active, no number. This is a sample that favours compounds with a hit; in the whole collection about 0.45% have one here.

Short forms: A = UUG fidelity; B = Tn7 DDE FP; C = DDE Tn6 FP inh; D = PglD inh
#1 C[C@H](CO)N1C[C@H](C)[C@H](CN(C)C(=O)Nc2ccc(C(F)(F)F)cc2)Oc2ccc(NC(=O)Nc3ccc(C(F)(F)F)cc3)cc2C1=O
  A: 30	B: .	C: .	D: 11
#2 COc1ccc(S(=O)(=O)N(C)C[C@@H]2Oc3ccc(NC(=O)C4CC4)cc3C(=O)N([C@@H](C)CO)C[C@H]2C)cc1
  A: 30	B: .	C: .	D: 13
#3 CC(=O)N(C)C[C@H]1Oc2cc(-c3cccc(F)c3)ccc2S(=O)(=O)N([C@@H](C)CO)C[C@@H]1C
  A: 14	B: .	C: .	D: -2
#4 C[C@H]1CN([C@@H](C)CO)C(=O)Cc2cc(NC(=O)c3ccncc3)ccc2O[C@H]1CN(C)S(C)(=O)=O
  A: 0	B: .	C: .	D: 13
#5 COCc1cn(CC[C@H]2CC[C@H](NC(=O)Nc3ccc(OC)cc3)[C@H](CO)O2)nn1
  A: 216*	B: .	C: .	D: 5
#6 NC(=S)N/N=C/c1cccc(O)c1O
  A: .	B: 3	C: 8	D: .
#7 Cc1cc(/C=N/NC(N)=S)c(O)c(/C=N/NC(N)=S)c1
  A: -29	B: 43*	C: 5	D: 2
#8 Cc1ccc(C(=O)C2C(=O)c3ccccc3C2=O)cc1
  A: -4	B: 5	C: -7	D: 1
#9 NN=C1c2ccccc2C(=O)C1C(=O)C(c1ccccc1)c1ccccc1 (stereo not given)
  A: -19	B: -4	C: 19*	D: -3
#10 O=C(N[C@H]1C=C[C@@H](CC(=O)N2CCCCC2)O[C@H]1CO)c1ccc2c(c1)OCO2
  A: .	B: .	C: .	D: 16*
#11 CC1=C([C@H](O)CCc2ccccc2)[C@H](CO)n2c(=O)n(-c3ccccc3)c(=O)n2C1
  A: -3	B: .	C: .	D: -2
#12 COc1cccc2c1C(=O)c1c(O)c3c(c(O)c1C2=O)C[C@](O)(C(C)=O)C[C@H]3O[C@@H]1C[C@@H](N)[C@@H](O)[C@@H](C)O1
  A: -28	B: 25*	C: +	D: 2
#13 COc1cccc2c1-c1c(O)cccc1C2=O
  A: -8	B: -4	C: -1	D: -9
#14 CCCCC(=O)OCC(=O)C1(O)Cc2c(O)c3c(c(O)c2C(OC2CC(NC(=O)C(F)(F)F)C(O)C(C)O2)C1)C(=O)c1c(OC)cccc1C3=O (stereo not given)
  A: .	B: 0	C: 43*	D: .
#15 COc1cccc2c1C(=O)c1c(O)c3c(c(O)c1C2=O)CC(O)(C(C)=O)CC3OC1CC(O)C(O)C(C)O1 (stereo not given)
  A: .	B: 26*	C: +	D: .

Remaining list, next part
Short forms: A = UUG fidelity; B = Tn7 DDE FP; C = DDE Tn6 FP inh; D = PglD inh
#16 COc1ccc(S(=O)(=O)N(C)C[C@@H]2OCCCC[C@@H](C)Oc3ccc(NS(=O)(=O)c4ccc(F)cc4)cc3C(=O)N([C@H](C)CO)C[C@H]2C)cc1
  A: -3	B: .	C: .	D: -1
#17 Cc1noc(C)c1NC(=O)N[C@@H]1C=C[C@@H](CC(=O)NCc2ccc(Cl)c(Cl)c2)O[C@H]1CO
  A: 2	B: .	C: .	D: 3
#18 O=C(C[C@@H]1C[C@H]2c3cc(NC(=O)CC4CC4)ccc3O[C@H]2[C@H](CO)O1)NCc1ccc2c(c1)OCO2
  A: 47	B: .	C: .	D: 4
#19 CO[C@@H]1CN(C)C(=O)c2ccc(NS(C)(=O)=O)cc2OC[C@H](C)N(C(=O)C2CCOCC2)C[C@H]1C
  A: -13	B: .	C: .	D: 3
#20 CCC(=O)Nc1ccc2c(c1)OC[C@H](C)N(Cc1ccccn1)C[C@@H](C)[C@@H](OC)CN(C)C2=O
  A: -7	B: .	C: .	D: 5
#21 CO[C@@H]1CN(C)C(=O)c2ccc(NS(C)(=O)=O)cc2OC[C@@H](C)N(C(=O)C2CCOCC2)C[C@H]1C
  A: 50	B: .	C: .	D: 18*
#22 CCC(=O)Nc1ccc2c(c1)OC[C@@H](C)N(Cc1ccccn1)C[C@@H](C)[C@H](OC)CN(C)C2=O
  A: -17	B: .	C: .	D: 18*
#23 COc1ccc(S(=O)(=O)N[C@H]2C=C[C@H](CC(=O)NCCc3ccncc3)O[C@@H]2CO)cc1
  A: .	B: .	C: .	D: -1
#24 CCN(CC)c1cccc(OC2=NS(=O)(=O)c3ccccc32)c1
  A: -12	B: 4	C: 111*	D: .
#25 O=C(C[C@H]1CC[C@H]2[C@@H](COC[C@@H](O)CN2Cc2cc(F)ccc2F)O1)NCc1ccc(F)cc1
  A: .	B: .	C: .	D: -1
#26 CN(C)CCCn1c2c3ccccc3ccc2c2oc(=O)c3ccccc3c21
  A: .	B: 17*	C: 8	D: .
#27 CN(C)CCCn1c(=S)[nH]c2ccccc2c1=O
  A: 0	B: 2	C: -3	D: -5
#28 O=C(C[C@@H]1C[C@@H]2c3cc(NC(=O)CC4CC4)ccc3O[C@@H]2[C@@H](CO)O1)NCc1cccnc1
  A: 1	B: .	C: .	D: 1
#29 CC(=O)N[C@@H]1CC[C@@H](CCNC(=O)Nc2ccc(C(F)(F)F)cc2)O[C@@H]1CO
  A: -1	B: .	C: .	D: -3
#30 CCN(CC)c1ccc2cc(NC(=O)CCC(=O)O)c(=O)oc2c1
  A: .	B: 10	C: 44*	D: .

In the list so far, 3 contain a CF3 group.
Short forms: A = UUG fidelity; B = Tn7 DDE FP; C = DDE Tn6 FP inh; D = PglD inh
#1 C[C@H](CO)N1C[C@H](C)[C@H](CN(C)C(=O)Nc2ccc(C(F)(F)F)cc2)Oc2ccc(NC(=O)Nc3ccc(C(F)(F)F)cc3)cc2C1=O
  A: 30	B: .	C: .	D: 11
#14 CCCCC(=O)OCC(=O)C1(O)Cc2c(O)c3c(c(O)c2C(OC2CC(NC(=O)C(F)(F)F)C(O)C(C)O2)C1)C(=O)c1c(OC)cccc1C3=O (stereo not given)
  A: .	B: 0	C: 43*	D: .
#29 CC(=O)N[C@@H]1CC[C@@H](CCNC(=O)Nc2ccc(C(F)(F)F)cc2)O[C@@H]1CO
  A: -1	B: .	C: .	D: -3

Following part:
Short forms: A = UUG fidelity; B = Tn7 DDE FP; C = DDE Tn6 FP inh; D = PglD inh
#31 CCCN1C[C@@H](C)[C@@H](OC)CN(C)C(=O)c2ccc(NC(=O)C3CC3)cc2OC[C@H]1C
  A: 0	B: .	C: .	D: -3
#32 COc1ccc(NC(=O)N2CCCCN3[C@@H](CO)[C@H](c4ccc(-c5ccccc5C)cc4)[C@@H]3C2)cc1
  A: -3	B: .	C: .	D: 11
#33 O=C1c2cccc(Sc3ccccc3)c2C(=O)c2c(Sc3ccccc3)cccc21
  A: 119*	B: -1	C: 8	D: 0
#34 CC(C)C[C@@H](CNCC(=O)[C@H](Cc1c[nH]c2ccccc12)NC(=O)c1[nH]cnc1C(=O)N[C@@H](C)CN)NC(=O)c1nc[nH]c1C(=O)N[C@@H](CC(=O)O)C(=O)O
  A: 154*	B: -4	C: -2	D: 0
#35 CC(C)C[C@@H](CNCC(=O)[C@H](Cc1c[nH]c2ccccc12)NC(=O)c1[nH]cnc1C(=O)N[C@@H](C)CN)NC(=O)c1nc[nH]c1C(=O)N[C@@H](C)C(=O)O
  A: 141*	B: -8	C: 0	D: -5
#36 CC(C)C[C@@H](CNCC(=O)[C@H](Cc1c[nH]c2ccccc12)NC(=O)c1[nH]cnc1C(=O)N[C@H](CN)CC(C)C)NC(=O)c1nc[nH]c1C(=O)N[C@@H](CC(=O)O)C(=O)O
  A: 154*	B: -10	C: 6	D: -2
#37 C[C@@H]1CN([C@@H](C)CO)C(=O)c2cc(NC(=O)C3CCCCC3)ccc2O[C@H]1CN(C)Cc1ccc(-c2ccccc2)cc1
  A: 4	B: .	C: .	D: 5
#38 CCN(CC)c1ccc(C(=C2C=CC(=[N+](CC)CC)C=C2)c2ccc(N(CC)CC)cc2)cc1
  A: -63	B: 3	C: 84*	D: 5
#39 CCN(CC)c1ccc(C(=C2C=CC(=[N+](CC)CC)C=C2)c2ccccc2)cc1
  A: .	B: -1	C: -11	D: .
#40 Cc1noc(C)c1NC(=O)N(C)C[C@@H]1Oc2ccc(NC(=O)c3ccncc3)cc2C(=O)N([C@H](C)CO)C[C@@H]1C
  A: -26	B: .	C: .	D: 1
#41 N#Cc1ccc(CCc2ccccc2)[nH]c1=O
  A: -13	B: 5	C: 0	D: -4
#42 N#Cc1ccc(CC(=O)c2ccccc2)[nH]c1=O
  A: -13	B: -2	C: 17*	D: -2
#43 O=c1oc2c3c4c(cc2s1)CCCN4CCC3
  A: -24	B: 7	C: 2	D: -4
#44 O=c1ccc2cc3c4c(c2o1)CCCN4CCC3
  A: -3	B: 23*	C: 7	D: -6
#45 C[C@@H]1CN([C@H](C)CO)C(=O)c2cc(NC(=O)Cc3ccccc3)ccc2O[C@@H](C)CCCCO[C@H]1CN(C)Cc1ccc(C(F)(F)F)cc1
  A: 88	B: .	C: .	D: 5

Screening data deposited in PubChem BioAssay by several laboratories.
